Our source for the t1/2 and PPB values is ChEMBL document CHEMBL4840312, “Discovery of memantyl urea derivatives as potent soluble epoxide hydrolase inhibitors against lipopolysaccharide-induced sepsis” (Eur J Med Chem, 2021).

The structures appear in SMILES notation.

A short description of series [1]: Microsomal stability in human liver microsomes assessed as half life in presence of NADPH by LC-MS/MS analysis. The class given is ADME, Microsome.
A short description of series [2]: Plasma protein binding in mouse measured for 5 hrs by LC-MS/MS analysis. It is filed as ADME, cell-free.

Consider `CC12CC3CC(C)(C1)CC(NC(=O)Nc1ccc(C(=O)N4CCCCC4)cc1)(C3)C2`, for which the t1/2 in series [1] was 25.37 min. The PPB in series [2] stood at 98.6%.
